The record followed here is patent publication EP3419977B1, “PLATINUM(II) RING-FUSED CHLORINS, METHODS AND USES THEREOF” (Universidade de Coimbra, priority 2016, dated 2017).

For data set [1] the following is noted: aqueous micellar system (Tween80/DMSO/water (2/2/96, v/v/v)), listed as chlorin 8.
The conditions of data set [2]: deaerated solution in water, ~4.5 h irradiation.
Data set [3] in a line: Singlet oxygen formation quantum yield. To be noted: aerated ethanol solution, phenazine as reference.
The nature of data set [4]: Luminescence response to O2 concentration (Stern-Volmer analysis). To be noted: ratio of intensity 755 nm / 600 nm, pO2 from 0 to 21 %, aqueous micellar system.
The conditions of data set [5]: in toluene, listed as chlorins 7b.

Like-named read-outs stand apart in the source and are kept apart here.

“platinum (II) 2,3-dihydroxymethyl-4,5,6,7-tetrahydropyrazolo[1,5-α]pyridine-fused chlorin [Chlorin 8]”: the Phosporescence lifetime in data set [1] (deaerated solution) stood at 30.9 µs; in data set [1] (presence of O2), 11.3 µs. For the same substance, in data set [2], the “phosphorescence intensity at 756 nm” value is reported as “unchanged”. Further, in data set [3], the “singlet oxygen quantum yield (φΔ)” value is on record as 0.58. For the same substance, in data set [4], the “KSV (Stern-Volmer constant)” value stood at 0.18.
Take “platinum (II) dimethyl 4,5,6,7-tetrahydropyrazolo[1,5-α]pyridine-2,3-dicarboxylate-fused chlorin [Chlorin 7b]”: the φP in data set [5] (deaerated (nitrogen saturated) solution) is 0.088; in data set [5] (presence of O2 (air equilibrated, [O2]= 1.8×10^-3 M)) it was 0.0028.
